# Experimental data published in PubChem BioAssay AID2275 (Broad Institute, 2010).
# Only a part is listed here, and it is no random draw. Some salts or complexes appear as unconnected parts, following the source record. The source made the active and inactive calls. Cut-off read from the data, not from the text of the source: active = viability loss activity score above about 50%; inconclusive = no clear call, values can overlap the other calls; inactive = below about 35%.
# Experiment: cytotoxicity in HRASV12-transformed BJ fibroblasts – cell-based, luminescence, CellTiterGlo ATP, primary screen (AID 2275);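 note: higher score means fewer live cells and less ATP luminescence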
# Details: BJeLR fibroblasts viability, 48 h, hits give high values, HRASV12, hTERT and SV40 LT/ST transformed, concentration not given here
row,Structure (SMILES),viability loss activity score
1,COc1cc2c(cc1NP(C)(=O)Oc1ccccc1)oc1ccccc12 (stereo not given),inactive: -0.0888%
2,CN(C(=O)Cc1ccc(Cl)c(Cl)c1)[C@H]1CCCC[C@@H]1N1CCCC1,inactive: 3.16%
3,CP(=O)(Nc1ccccn1)Oc1ccccc1 (stereo not given),inactive: 2.67%
4,CP(=O)(Nc1ccc(Cl)cc1)Oc1ccc(F)cc1 (stereo not given),inactive: 3.6%
5,C/C1=C2N=C(/C=C3N=C(/C(C)=C4\[N-][C@@](C)([C@@H]5N=C1[C@](C)(CCC(=O)NCC(C)OP(=O)(O)O[C@@H]1[C@H](O)[C@H](n6cnc7cc(C)c(C)cc76)O[C@H]1CO)[C@H]5CC(N)=O)[C@@](C)(CC(N)=O)[C@@H]4CCC(N)=O)[C@@](C)(CC(N)=O)[C@@H]\3CCC(N)=O)C(C)(C)[C@@H]/2CCC(N)=O.[C-]#N.[Co+3] (stereo not given in full),inactive: 2.15%
6,O=C(OC1CN2CCC1CC2)c1ccc(Cl)cc1 (stereo not given),inactive: -9.56%
7,Cc1cccc(OCC(=O)OC2CN3CCC2CC3)c1 (stereo not given),inactive: -2.22%
8,O=P1(Nc2ccccn2)COc2ccccc2OC1,inactive: -0.681%
9,Cc1ccc(C(=O)OC2CN3CCC2CC3)cc1 (stereo not given),inactive: 1.21%
10,Cc1cc(C)cc(OP(C)(=O)Nc2ccc(OC(C)C)cc2)c1 (stereo not given),inactive: -7.35%
